Protein sequences, listed by entry. Tags and fused reporters are not part of them. Residues count along the entry.
UniProt P06276, 29-602: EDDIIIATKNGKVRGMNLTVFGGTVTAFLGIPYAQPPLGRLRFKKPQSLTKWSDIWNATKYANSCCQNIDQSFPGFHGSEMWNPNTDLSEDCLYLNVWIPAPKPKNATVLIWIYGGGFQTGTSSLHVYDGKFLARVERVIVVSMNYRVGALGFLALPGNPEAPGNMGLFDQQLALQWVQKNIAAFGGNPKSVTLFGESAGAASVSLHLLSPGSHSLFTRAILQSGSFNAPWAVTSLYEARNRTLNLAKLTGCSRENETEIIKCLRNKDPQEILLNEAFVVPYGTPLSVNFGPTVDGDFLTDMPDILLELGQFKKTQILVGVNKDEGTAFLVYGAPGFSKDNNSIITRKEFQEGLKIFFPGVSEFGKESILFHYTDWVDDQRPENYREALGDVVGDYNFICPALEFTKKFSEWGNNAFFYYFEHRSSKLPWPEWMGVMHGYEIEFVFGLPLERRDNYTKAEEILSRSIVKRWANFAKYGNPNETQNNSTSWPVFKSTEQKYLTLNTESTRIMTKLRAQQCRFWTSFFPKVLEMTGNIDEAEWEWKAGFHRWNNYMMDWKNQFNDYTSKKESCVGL

According to PMC6445159, “Resorcinol-, catechol- and saligenin-based bronchodilating β2-agonists as inhibitors of human cholinesterase activity” (Journal of Enzyme Inhibition and Medicinal Chemistry, 2017):

Molecular target: T1, usual BChE (Homo sapiens, UniProt P06276)
T1 construct: Human native serum was used as a source of BChE; from tissue; host or cells: human serum (donor, IMROH Zagreb)
Type: biochemical
Description: ATCh was used as a substrate for AChE and PTCh as a substrate for BChE. The reaction mixture contained DTNB (final concentration 0.3 mM), buffer, enzyme suspension, inhibitor (0.5–10 mM) and ATCh or PTCh (0.025–1.0 mM). Inhibition of enzymes was determined by measuring the decrease in enzyme activity in the presence of inhibitors.
The dissociation constant for an enzyme–inhibitor complex K(I) was evaluated from the impact of substrate concentrations [S] on the degree of inhibition applying the Hunter–Downs equation[17]^,[39]: Ki,app=vi/v0-vi·[I]=K(I)+K(I)/K(S)·[S] where Ki,app is an apparent enzyme-reversible inhibitor complex dissociation constant obtained at a given substrate concentration [S] in the presence of inhibitor concentration [I] and calculated from the enzyme activities v0 and vi measured without inhibitor and in the presence of inhibitor concentration [I], respectively. K(I) is the enzyme-reversible inhibitor complex dissociation constant and can stand for a complex formed at the catalytic site or for a complex formed at the peripheral site of the enzyme. K(S) is the enzyme-substrate dissociation constant that could be approximated to the Michaelis constant or to the enzyme-substrate dissociation constant when two molecules of the substrate are bound to the enzyme.

`CC(Cc1ccc(O)cc1)NCC(O)c1cc(O)cc(O)c1` (stereo not shown) [Fenoterol] was tested, and the “selectivity: inhibition of usual BChE more potent than AChE (ratio of K(I) constants)” value was 36 times.
